Test results published in publication doi:10.1101/2023.04.09.536153v2.

Sequences of proteins named here, by UniProt entry; tags and fusion partners are left off. Residues count along the entry.
UniProt Q9Y4B6, 1073-1399 E1398S limits assumed: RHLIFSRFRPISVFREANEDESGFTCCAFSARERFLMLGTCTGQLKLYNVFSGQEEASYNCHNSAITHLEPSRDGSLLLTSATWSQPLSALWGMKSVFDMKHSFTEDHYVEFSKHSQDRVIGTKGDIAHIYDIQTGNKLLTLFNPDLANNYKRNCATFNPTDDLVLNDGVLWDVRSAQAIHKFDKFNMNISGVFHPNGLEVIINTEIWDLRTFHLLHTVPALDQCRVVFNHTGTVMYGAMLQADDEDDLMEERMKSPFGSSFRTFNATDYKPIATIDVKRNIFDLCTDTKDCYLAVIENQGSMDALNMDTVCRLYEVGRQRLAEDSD

Biological target: DCAF1(1073-1399)_E1398S (WDR domain, Avi/His-tagged) (Homo sapiens, UniProt Q9Y4B6, E1398S)
Assay: TR-FRET competition with bodipy ligand
Type: binding
Conditions: 30 mM phosphate pH 7.4, 140 mM NaCl, 22 °C; no BTK added

CC(=O)NCCOCCOCCOCCOCCOCCOCCC(=O)N1CCN(c2ccc3c(NCCN)nc(C4(c5ccc(Cl)cc5)CCCC4)nc3c2)CC1
IC50: 0.02 µM
